Patent US20210052557A1, “COMPOSITIONS FOR TREATING INFECTIVE ARTERIAL DISEASES AND RELATED CONDITIONS” (CENTRE FOR DIGESTIVE DISEASES, priority 2018, published 2021)

Assay: Vitamin D blood levels in patients at high doses
Assay type: in vivo, human
Conditions: blood levels of around 200 to 375 nmol/l
Text: In alternative embodiments, the pharmaceutical compositions, formulations, or products of manufacture further comprises: (a) a vitamin E, a tocotrienol, a natural tocopherol or a tocochromanol, a vitamin D, or any combination thereof, wherein optionally the vitamin D is formulated for use in doses of up to about 5000 to 20,000 units per day, optionally to achieve blood levels of about 150 to 375 nmol/l; (b) a penicillamine, or DEPEN™ or CUPRIMINE™; (c) an acetylcysteine or N-acetylcysteine (NAC), or ACETADOTE™, FLUIMUCIL™, MUCOMYST™; or (d) any combination of (a) to (c). […] These levels are non-toxic, for toxicity to occur much higher levels need to be reached.

Vitamin D
toxicity of these blood levels: non-toxic
